Results as given in patent US20250346582A1, “SPLEEN TYROSINE KINASE INHIBITORS AND METHODS OF USE THEREOF” (THE BOARD OF TRUSTEES OF THE UNIVERSITY OF ILLINOIS, priority 2022, published 2025).
Several values for one entry are separate records, joined by “and”; a condition that tells them apart may be missing. Equal values may be shown once.

By UniProt entry, the sequences of proteins in these tests, tags left out. Residues count along the entry.
UniProt Q8WV28, 346-453 limits assumed: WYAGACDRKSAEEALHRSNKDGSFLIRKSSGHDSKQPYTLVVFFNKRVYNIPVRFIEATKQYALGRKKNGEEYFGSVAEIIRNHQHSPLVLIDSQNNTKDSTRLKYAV
UniProt P16885, 646-735 limits assumed: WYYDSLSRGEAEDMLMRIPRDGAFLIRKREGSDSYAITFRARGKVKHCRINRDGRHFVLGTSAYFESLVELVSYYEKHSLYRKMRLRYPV

How the values were obtained:
BLNK-SH2 = BLNK-SH2 (Homo sapiens, UniProt Q8WV28); experiment: Fluorescence quenching vesicle binding assay, BLNK-SH2; conditions: Table 2; BLNK-SH2 binding to POPC/POPS/PIP3/dabsyl-PE vesicles
Experimental: (§1) The membrane-binding assay is based on fluorescence quenching of EGFP fused to a SH2 domain by a dark quencher containing lipid, dabsyl-PE, incorporated in lipid vesicles. The plate reader assay was performed using the Synergy™ Neo spectrofluorometer at 25° C. Nontreated black polystyrene 96-well plates (Corning) were used. Protein (10-50 nM) with the increasing concentration of vesicles with a given lipid composition in 20 mM Tris buffer, pH 7.4, containing 0.16 M NaCl was added to each row of wells and the EGFP fluorescence emission at 516 nm was measured with excitation set at 485 nm. Z′ factor for the assay system was determined as described^74. Imax and IC50 values of inhibitors were determined using the equation, I=Imax/(1+IC50/[I]) where I and [I] indicate % inhibition and inhibitor concentration, respectively. […]
(§2) We also optimized a recently developed fluorescence quenching-based lipid-binding assay^47 for high-throughput screening of these molecules for their inhibitory activity against the PIP3-SH2 interaction. Specifically, we expressed SH2 domains as EGFP-tagged proteins and directly quantified their membrane binding by monitoring the quenching of EGFP fluorescence emission intensity by a dark quencher-containing lipid, N-dimethylaminoazo-benzenesulfonyl-phosphatidylethanolamine (dabsyl-PE), incorporated in the vesicles. […]

[1] = tested on: BCR signaling axis (Syk-BLNK-PLCγ2); experiment: Western blot of BCR signaling axis in Raji B lymphocytes; conditions: Raji B cells
Experimental: Cells were seeded at a density of 3.0×10^5 cells/well prior to incubation with inhibitors. Cells were incubated with 1-5 μM of Syk inhibitors overnight and stimulated with different antibodies: IgG2 for AML cells, IgM for Raji B cells, and OKT3 (Biolegend) for Jurkat cells. The cells were lysed in NP40 lysis buffer (50 mM Tris, pH 7.5, 150 mM NaCl, 1 mM EDTA, 1% NP40, 10% glycerol, 10 mM NaF, 10 mM Na3VO4, and the protease inhibitor cocktail) at 4° C. and the cell debris was removed by centrifugation. Samples were analyzed by SDS-PAGE. Proteins were separated and transferred to Immobilon-P polyvinylidene difluoride membrane (Millipore Sigma). The membrane was blocked with 5% bovine serum albumin for 1 h and incubated overnight at 4° C. with various antibodies (1:1000 dilution for all antibodies). After the unbound antibodies were removed by washing with 0.1% Tris buffer saline with 0.1% Tween20, the membranes were incubated with the horseradish peroxidase secondary antibody (1:5000 dilution) for 1 h at room temperature. The membranes were washed three more times with 0.1% Tris buffer saline with 0.1% Tween20 to remove the unbound horseradish peroxidase secondary antibody before imaging. The chemiluminescence intensity of protein bands in the gel was analyzed and documented by the Azure 500Q Imaging System.

Syk-cSH2 = Syk-cSH2 (Homo sapiens, UniProt P43405); experiment: Fluorescence quenching vesicle binding assay, Syk-cSH2
Experimental: The membrane-binding assay is based on fluorescence quenching of EGFP fused to a SH2 domain by a dark quencher containing lipid, dabsyl-PE, incorporated in lipid vesicles. The plate reader assay was performed using the Synergy™ Neo spectrofluorometer at 25° C. Nontreated black polystyrene 96-well plates (Corning) were used. Protein (10-50 nM) with the increasing concentration of vesicles with a given lipid composition in 20 mM Tris buffer, pH 7.4, containing 0.16 M NaCl was added to each row of wells and the EGFP fluorescence emission at 516 nm was measured with excitation set at 485 nm. Z′ factor for the assay system was determined as described^74. Imax and IC50 values of inhibitors were determined using the equation, I=Imax/(1+IC50/[I]) where I and [I] indicate % inhibition and inhibitor concentration, respectively. The average and standard deviation values were obtained from triplicate determinations.
We also optimized a recently developed fluorescence quenching-based lipid-binding assay^47 for high-throughput screening of these molecules for their inhibitory activity against the PIP3-SH2 interaction. Specifically, we expressed SH2 domains as EGFP-tagged proteins and directly quantified their membrane binding by monitoring the quenching of EGFP fluorescence emission intensity by a dark quencher-containing lipid, N-dimethylaminoazo-benzenesulfonyl-phosphatidylethanolamine (dabsyl-PE), incorporated in the vesicles. We then screened for compounds that inhibited binding of Syk-cSH2, BLNK-SH2, and PLCγ2-cSH2, respectively, to 1-palmitoyl-2-oleoyl-PC (POPC)/1-palmitoyl-2-oleoyl-PS (POPS)/PIP3/dabsyl-PE (67:20:3:10) vesicles while eliminating those that inhibit their non-specific binding to anionic POPC/POPS/dabsyl-PE (70:20:10) vesicles. The quality of the screening system was evaluated using 1% dimethylsulfoxide (DMSO) and 20 μM D-myo-inositol-1,3,4,5-tetraphosphate (IP4) as negative and positive controls, respectively. The clear separation of positive and negative control data and the average Z′-factor of 0.7 supported the robustness of our system for high-throughput screen of PIP3-SH2 interaction inhibitors.

PLCγ2-cSH2 = PLCγ2-cSH2 (Homo sapiens, UniProt P16885); experiment: Fluorescence quenching vesicle binding assay, PLCγ2-cSH2; conditions: Table 2; PLCγ2-cSH2 binding to POPC/POPS/PIP3/dabsyl-PE vesicles
Experimental: as §1, §2

[2] = Table 2, Syk-cSH2 binding to POPC/POPS/PIP3/dabsyl-PE vesicles
[3] = Table 3, efficacy determined by the vesicle binding assay

- Imax (%) (BLNK-SH2): <10%
- IC50 (Syk-cSH2; [2]): 500 nM and 350 nM
- Imax (%) (Syk-cSH2; [2]): 40-50% and 40 ± 5%
- IC50 (Syk-cSH2; [3]): 500 nM
- Imax (%) (Syk-cSH2; [3]): Imax (%) = 40
- Imax (%) (PLCγ2-cSH2): <10%
Structure (SMILES): Cc1ccc(C(Nc2ncccn2)C(=[N+]=[N-])C(=O)OC2CCCCC2)cc1 (stereo not shown)
- effect on phosphorylation of BCR signaling proteins (Syk, BLNK, PLCγ2) [1]: suppressed phosphorylation of Syk (pY525/pY526), BLNK (pY96) and PLCγ2 (pY759)
